Measured affinities in a library of Ab-95 light chain variants

Data: MIT Lincoln Laboratory AlphaSeq set, Engelhart et al. 2022, doi:10.1038/s41597-022-01779-4, as distributed in FLAb.

Target: peptide PDVDLGDISGINAS, taken from heptad repeat 2 (HR2) of SARS-CoV-2 spike.

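Phage display of a naive human antibody library on the peptide gave the parent. Variants in AAYL52 differ from the parent at up to three CDR positions; double and triple changes were sampled at random. Affinity was read by AlphaSeq, a pooled yeast mating assay with surface-displayed partners. The frequency of each diploid, read from paired DNA barcodes, reflects how well the two displayed proteins bind. A regression on co-assayed BCL2-family reference pairs converts the normalised counts of each replicate to an apparent Kd. The assay was run in three technical replicates.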

Parent: Ab-95, a human scFv built as VH, a (GGGGS)3 linker, VL. Only the CDRs of the light chain vary.
VH: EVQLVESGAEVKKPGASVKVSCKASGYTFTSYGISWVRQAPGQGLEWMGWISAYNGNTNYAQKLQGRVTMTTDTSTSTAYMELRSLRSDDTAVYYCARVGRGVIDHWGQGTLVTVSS
VL: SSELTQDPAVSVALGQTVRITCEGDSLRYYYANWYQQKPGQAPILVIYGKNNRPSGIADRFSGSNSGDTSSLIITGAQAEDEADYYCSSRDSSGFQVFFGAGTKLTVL

Changes read parent residue, position, new residue, counted from the first residue of the VL shown.
The read-out is the apparent dissociation constant on a log10 scale (nM): the lower, the stronger.
Averages over replicates are reported, and they cover detected replicates only.
An entry "no signal" has no value in the source: the pair was not observed among the diploids in any replicate. This suggests poor binding but is not conclusive.
Background: pairings of library AAYL52 with three empty control strains gave a value in 28% of cases (median 3.91, 5th percentile 2.90). Values in that range, when seen in few replicates, are hard to tell from nonspecific mating. The control count says in how many pairings with the empty strains this scFv gave a signal.
Parent in this assay: reference entry 2.31, copy in this library 2.25.

changes,mean log10 Kd (nM),replicates with signal,control signals
R28K Y29T Y31R,1.69,3 of 3,2 of 9
G24Q Y29V Y30W,3.41,2 of 3,5 of 9
G24F G49P,no signal,0 of 3,2 of 9
S26V Y31A S93T,3.18,3 of 3,1 of 9
G24L S26T V97D,4.33,2 of 3,4 of 9
S26C S92L S93G,1.21,3 of 3,1 of 9
Y31E R53E D91Y,3.44,1 of 3,2 of 9
Y29N S88K,1.46,3 of 3,3 of 9
D91N V97N,2.75,3 of 3,4 of 9
G24Q R28M P54S,4.77,3 of 3,4 of 9
E23W N33Y K50S,3.57,2 of 3,7 of 9
S55Q Q96I V97H,no signal,0 of 3,0 of 9
D25Q N33D P54H,2.85,3 of 3,1 of 9
D25C R28E,1.75,3 of 3,5 of 9
Y29I Q96W V97D,no signal,0 of 3,2 of 9
N33I G94A,2.75,3 of 3,2 of 9
R28E P54R S55K,3.21,1 of 3,2 of 9
D25Y L27C F95W,4.18,1 of 3,5 of 9
L27M A32V F95E,3.17,3 of 3,3 of 9
S55Q S92Q V97E,5.27,1 of 3,0 of 9
N33A R53M G94V,4.35,1 of 3,2 of 9
N33Y P54C F95W,no signal,0 of 3,4 of 9
L27D Y31F S88R,5.75,1 of 3,1 of 9
R53I F98Q,no signal,0 of 3,1 of 9
G24E A32Q F95D,3.74,1 of 3,4 of 9
L27F S55H S89C,2.66,3 of 3,2 of 9
K50S P54I,4.02,1 of 3,0 of 9
G24D S26L R53T,2.56,3 of 3,0 of 9
D25P S26F L27I,3.98,3 of 3,4 of 9
Y30A Y31T F98G,1.51,3 of 3,4 of 9
R90E S93M F95T,no signal,0 of 3,6 of 9
K50C S89M F95E,3.68,2 of 3,5 of 9
E23F A32D S55K,3.48,2 of 3,3 of 9
S93V V97Q F98A,3.76,1 of 3,6 of 9
R28A K50N V97W,no signal,0 of 3,1 of 9
G24T D25A K50I,4.59,2 of 3,5 of 9
Y30C P54F S88K,4.81,2 of 3,3 of 9
R28W Y30A V97E,2.30,3 of 3,5 of 9
S26A R53K,2.13,3 of 3,2 of 9
A32Y S92V,no signal,0 of 3,2 of 9
D25S N33W K50I,3.02,1 of 3,0 of 9
S26P R53T P54G,2.68,3 of 3,2 of 9
D25N K50F N52S,3.46,1 of 3,4 of 9
A32W R90K G94F,4.08,1 of 3,2 of 9
N51T N52Q V97H,4.47,1 of 3,2 of 9
D25C S26C S55N,3.33,2 of 3,4 of 9
V97M F98T,4.53,2 of 3,4 of 9
S26Y S89C Q96F,3.70,2 of 3,0 of 9
Y31K A32E N33Y,3.99,3 of 3,3 of 9
Y29G S88H F95W,1.91,3 of 3,1 of 9
G24S Y31M R90P,3.40,3 of 3,3 of 9
A32N S93Q V97Q,2.96,3 of 3,1 of 9
Y31T G49M G94N,3.32,1 of 3,0 of 9
L27D A32I K50G,2.04,3 of 3,3 of 9
N52K R53K Q96L,2.85,3 of 3,2 of 9
E23N S93W F98Y,no signal,0 of 3,0 of 9
D25T Y29K G94P,3.16,3 of 3,4 of 9
R90W S92M Q96V,2.93,3 of 3,1 of 9
L27S K50Q N52W,4.38,1 of 3,2 of 9
D25E A32M S89M,3.94,2 of 3,3 of 9
D25S Y30P,2.72,3 of 3,3 of 9
G24N R28W N33Y,no signal,0 of 3,6 of 9
R53Y D91T V97A,4.30,2 of 3,4 of 9
R28G R53L S88G,5.13,1 of 3,1 of 9
N52W R53S R90F,3.51,2 of 3,1 of 9
N51T S92V V97E,4.46,1 of 3,4 of 9
R53W Q96V F98M,3.45,1 of 3,4 of 9
Y31W A32Q P54H,4.20,2 of 3,4 of 9
R90G S92G V97N,3.69,3 of 3,5 of 9
Y30M S55D V97P,1.76,3 of 3,3 of 9
E23L S55C S88L,4.22,1 of 3,3 of 9
L27C S55K F95Y,3.56,2 of 3,4 of 9
S55L R90A S92T,3.94,2 of 3,4 of 9
P54F S89T F98G,4.34,2 of 3,3 of 9
Y31D S89H R90T,3.22,3 of 3,1 of 9
Y30N S89T R90C,0.75,3 of 3,6 of 9
Y29C S92P S93V,3.36,1 of 3,0 of 9

The closing 13 entries, repeated:

{"changes": "N52W R53S R90F", "mean log10 Kd (nM)": "3.51", "replicates with signal": "2 of 3", "control signals": "1 of 9"}
{"changes": "N51T S92V V97E", "mean log10 Kd (nM)": "4.46", "replicates with signal": "1 of 3", "control signals": "4 of 9"}
{"changes": "R53W Q96V F98M", "mean log10 Kd (nM)": "3.45", "replicates with signal": "1 of 3", "control signals": "4 of 9"}
{"changes": "Y31W A32Q P54H", "mean log10 Kd (nM)": "4.20", "replicates with signal": "2 of 3", "control signals": "4 of 9"}
{"changes": "R90G S92G V97N", "mean log10 Kd (nM)": "3.69", "replicates with signal": "3 of 3", "control signals": "5 of 9"}
{"changes": "Y30M S55D V97P", "mean log10 Kd (nM)": "1.76", "replicates with signal": "3 of 3", "control signals": "3 of 9"}
{"changes": "E23L S55C S88L", "mean log10 Kd (nM)": "4.22", "replicates with signal": "1 of 3", "control signals": "3 of 9"}
{"changes": "L27C S55K F95Y", "mean log10 Kd (nM)": "3.56", "replicates with signal": "2 of 3", "control signals": "4 of 9"}
{"changes": "S55L R90A S92T", "mean log10 Kd (nM)": "3.94", "replicates with signal": "2 of 3", "control signals": "4 of 9"}
{"changes": "P54F S89T F98G", "mean log10 Kd (nM)": "4.34", "replicates with signal": "2 of 3", "control signals": "3 of 9"}
{"changes": "Y31D S89H R90T", "mean log10 Kd (nM)": "3.22", "replicates with signal": "3 of 3", "control signals": "1 of 9"}
{"changes": "Y30N S89T R90C", "mean log10 Kd (nM)": "0.75", "replicates with signal": "3 of 3", "control signals": "6 of 9"}
{"changes": "Y29C S92P S93V", "mean log10 Kd (nM)": "3.36", "replicates with signal": "1 of 3", "control signals": "0 of 9"}